Assay results: PMC10716126, “Enzyme mechanistic studies of NMA1982, a protein tyrosine phosphatase and potential virulence factor in Neisseria meningitidis” (Scientific Reports, 2023)

Amino acid sequences for entries named in this document (tags omitted). A change or cut given only in a name is not applied to a line headed by its entry.
UniProt P18031: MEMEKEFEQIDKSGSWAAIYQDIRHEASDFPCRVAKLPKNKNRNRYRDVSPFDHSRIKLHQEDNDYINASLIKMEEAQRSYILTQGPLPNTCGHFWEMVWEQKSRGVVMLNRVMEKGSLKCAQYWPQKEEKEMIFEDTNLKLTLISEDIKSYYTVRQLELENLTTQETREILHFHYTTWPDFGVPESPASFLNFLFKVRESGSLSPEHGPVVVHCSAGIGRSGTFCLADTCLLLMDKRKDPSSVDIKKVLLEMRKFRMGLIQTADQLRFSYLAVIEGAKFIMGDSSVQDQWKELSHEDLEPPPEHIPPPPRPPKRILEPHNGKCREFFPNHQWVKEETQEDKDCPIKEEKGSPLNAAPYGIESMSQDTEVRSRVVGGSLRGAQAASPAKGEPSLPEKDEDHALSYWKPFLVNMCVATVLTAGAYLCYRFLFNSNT

Biological target: T1, PTP1B (Homo sapiens, UniProt P18031)
T1 construct: gene PTPN1

Cc1cc(=O)oc2c(F)c(OP(=O)(O)O)c(F)cc12 [DiFMUP]
Km: 4 µM
